Tests used:
[1] = biological target: rmGluR5 or hmGluR5 stably expressed in HEK 293 cell line (Homo sapiens, UniProt P41594); experiment: Calcium mobilization assay (FLIPR) for negative allosteric activity; assay type: cell-based, rat or human; conditions: inhibition of EC80 glutamate response (NAM mode); read-out: FLIPR functional IC50
Description: Laser excitation energy was adjusted so that basal fluorescence readings were approximately 10,000 relative fluorescent units. […] Maximum change in fluorescence was calculated for each well. Concentration-response curves derived from the maximum change in fluorescence were analyzed by nonlinear regression (Hill equation).

Chains of the proteins cited; added tags and fusions are not shown. Residues count along the entry.
UniProt P41594, 21-1212 limits assumed: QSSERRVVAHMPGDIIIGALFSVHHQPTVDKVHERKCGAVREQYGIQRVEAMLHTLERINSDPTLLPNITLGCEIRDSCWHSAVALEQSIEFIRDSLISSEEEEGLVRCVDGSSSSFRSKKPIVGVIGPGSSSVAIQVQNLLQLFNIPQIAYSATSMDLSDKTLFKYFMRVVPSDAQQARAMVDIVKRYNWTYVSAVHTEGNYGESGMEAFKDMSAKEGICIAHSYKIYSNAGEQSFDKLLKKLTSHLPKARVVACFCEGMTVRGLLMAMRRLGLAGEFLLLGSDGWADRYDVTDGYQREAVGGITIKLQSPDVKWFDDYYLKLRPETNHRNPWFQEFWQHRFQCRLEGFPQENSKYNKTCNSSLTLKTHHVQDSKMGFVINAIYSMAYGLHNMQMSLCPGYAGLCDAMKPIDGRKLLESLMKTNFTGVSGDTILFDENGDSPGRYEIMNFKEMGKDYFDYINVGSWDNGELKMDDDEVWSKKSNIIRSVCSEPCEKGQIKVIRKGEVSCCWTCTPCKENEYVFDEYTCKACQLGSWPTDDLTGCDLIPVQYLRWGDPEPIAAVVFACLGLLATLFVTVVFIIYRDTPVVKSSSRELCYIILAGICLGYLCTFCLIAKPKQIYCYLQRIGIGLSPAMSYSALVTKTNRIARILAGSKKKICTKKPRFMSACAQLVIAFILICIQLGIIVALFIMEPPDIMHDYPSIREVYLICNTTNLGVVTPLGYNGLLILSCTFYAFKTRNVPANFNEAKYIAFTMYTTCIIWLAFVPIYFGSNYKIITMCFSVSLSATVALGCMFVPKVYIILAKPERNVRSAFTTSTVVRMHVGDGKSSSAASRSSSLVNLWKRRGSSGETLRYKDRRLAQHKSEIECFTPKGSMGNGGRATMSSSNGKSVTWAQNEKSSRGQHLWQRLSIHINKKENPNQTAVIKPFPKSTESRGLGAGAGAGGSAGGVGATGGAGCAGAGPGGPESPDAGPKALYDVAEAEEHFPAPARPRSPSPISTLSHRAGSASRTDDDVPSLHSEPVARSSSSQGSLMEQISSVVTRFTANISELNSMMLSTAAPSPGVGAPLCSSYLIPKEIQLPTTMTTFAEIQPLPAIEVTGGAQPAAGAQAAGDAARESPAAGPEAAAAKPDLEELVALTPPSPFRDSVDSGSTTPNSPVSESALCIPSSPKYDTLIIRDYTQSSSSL

[2] = biological target: mGluR5 (MPEP binding site) (Homo sapiens (Human), UniProt P41594); experiment: Radioligand binding assay (MPEP site radioligand, membrane filtration); conditions: 5 nM radioligand binding to MPEP site; Cheng-Prusoff
Description: Binding assays were performed as described in [J. A. O'Brien et al. Mol Pharmacol., 2003, 64, 731-740] with slight modifications, including that a radioligand that binds to the […] (MPEP) binding site was used in place of [^3H] MPEP. Briefly, after thawing, the membrane homogenates were resuspended in 50 mM Tris-HCl and 0.9% NaCl binding buffer at pH 7.4 to a final assay concentration of 20 μg protein/well for radioligand filtration binding. Incubations included 5 nM radioligand, membranes and either buffer or varying concentrations of compound. Samples were incubated for 60 min at room temperature with shaking. Non-specific binding was defined with 10 μM cold MPEP when using the radioligand. After incubation, samples were filtered over a GF/C filter (presoaked in 0.25% polyethyleneimine (PEI)) and then washed 4 times using a Tomtec® Harvester 96® Mach III cell harvester (Tomtec, Hamden, Conn.) with 0.5 mL ice-cold 50 mM Tris-HCl (pH 7.4).
IC50 values were derived from the inhibition curve and Ki values were calculated according to the Cheng and Prusoff equation of Ki=IC50/(1+[L]/Kd) described in [Y. Cheng and W. H. Prusoff Biochem. Pharmacal. 1973, 22, 3099-3108] where [L] is the concentration of radioligand and Kd is its dissociation constant at the receptor, derived from the saturation isotherm. […]

Compound	IC50 [1] [nM]	Ki [2] [nM]
O=C(N[C@]12CCC[C@](C#Cc3ccccn3)(CC1)C2)c1ncccc1F [Example 23, 3-fluoro-N-((1R,5S)-5-(pyridin-2-ylethynyl)bicyclo[3.2.1]octan-1-yl)picolinamide]	11	–
O=C(N[C@]12CCC[C@](C#Cc3ccccn3)(CC1)C2)c1ccccn1 [Example 16, N-((1R,5S)-5-(pyridin-2-ylethynyl)bicyclo[3.2.1]octan-1-yl)picolinamide]	1.6	4.5
Cc1nc(C(=O)N[C@@]23CCC[C@@](C#Cc4cnccn4)(CC2)C3)cs1 [Example 51, 2-methyl-N-((1S,5R)-5-(pyrazin-2-ylethynyl)bicyclo[3.2.1]octan-1-yl)thiazole-4-carboxamide]	83	–
O=C(N[C@]12CCC[C@](C#Cc3ccccn3)(CC1)C2)c1cnccn1 [Example 17]	6.6	–
Cc1nc(C(=O)N[C@]23CCC[C@](C#Cc4cnccn4)(CC2)C3)cs1 [Example 46, 2-methyl-N-((1R,5S)-5-(pyrazin-2-ylethynyl)bicyclo[3.2.1]octan-1-yl)thiazole-4-carboxamide]	12	–
Cn1ccc(C(=O)N[C@@]23CCC[C@@](C#Cc4ccccn4)(CC2)C3)n1 [Example 32, 1-methyl-N-((1S,5R)-5-(pyridin-2-ylethynyl)bicyclo[3.2.1]octan-1-yl)-1H-pyrazole-3-carboxamide]	17	–
O=C(N[C@@]12CCC[C@@](C#Cc3ccccn3)(CC1)C2)c1ccccn1 [Example 26, N-((1S,5R)-5-(pyridin-2-ylethynyl)bicyclo[3.2.1]octan-1-yl)picolinamide]	5.9	22
